# From paper PMC9318133, “In Vivo Bio-Activation of JWH-175 to JWH-018: Pharmacodynamic and Pharmacokinetic Studies in Mice” (International Journal of Molecular Sciences, 2022)
# Protein sequences, listed by entry. Tags and fused reporters are not part of them.
# UniProt P21554, whole entry: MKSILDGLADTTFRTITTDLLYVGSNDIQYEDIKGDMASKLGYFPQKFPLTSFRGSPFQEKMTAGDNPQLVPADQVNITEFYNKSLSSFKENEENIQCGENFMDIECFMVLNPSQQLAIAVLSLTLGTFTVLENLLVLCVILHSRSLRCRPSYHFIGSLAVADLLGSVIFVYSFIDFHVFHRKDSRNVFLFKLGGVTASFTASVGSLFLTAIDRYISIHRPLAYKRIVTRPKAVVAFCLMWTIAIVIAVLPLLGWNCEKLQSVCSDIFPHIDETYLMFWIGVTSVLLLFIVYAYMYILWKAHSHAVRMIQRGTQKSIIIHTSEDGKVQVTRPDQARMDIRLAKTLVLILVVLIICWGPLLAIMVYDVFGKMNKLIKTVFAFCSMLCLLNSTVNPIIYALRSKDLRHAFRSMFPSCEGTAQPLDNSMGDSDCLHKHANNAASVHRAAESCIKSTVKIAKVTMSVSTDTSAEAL
# UniProt P47746, whole entry: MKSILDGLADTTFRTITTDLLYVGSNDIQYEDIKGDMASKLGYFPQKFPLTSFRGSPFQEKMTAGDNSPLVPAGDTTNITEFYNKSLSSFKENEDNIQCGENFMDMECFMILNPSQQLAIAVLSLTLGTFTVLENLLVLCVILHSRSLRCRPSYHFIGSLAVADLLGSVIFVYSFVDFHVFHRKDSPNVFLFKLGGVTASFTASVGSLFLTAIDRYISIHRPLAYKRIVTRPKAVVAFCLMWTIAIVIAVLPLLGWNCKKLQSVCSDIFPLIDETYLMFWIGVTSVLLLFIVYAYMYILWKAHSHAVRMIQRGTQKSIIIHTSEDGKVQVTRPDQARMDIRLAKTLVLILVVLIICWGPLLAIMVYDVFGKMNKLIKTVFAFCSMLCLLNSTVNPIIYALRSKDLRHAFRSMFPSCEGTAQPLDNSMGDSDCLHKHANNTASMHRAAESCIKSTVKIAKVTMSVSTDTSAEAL
# Assays:
# human CB1 receptors = target: T1, human CB1 receptors (Homo sapiens, UniProt P21554); experiment: [3H]-CP-55,940 competition binding, CHO cell membranes transfected with human CB1 receptors
# T1 construct: host or cells: CHO cells
# mouse CB1 receptors = target: T2, mouse CB1 receptors (Mus musculus, UniProt P47746); experiment: [3H]-CP-55,940 competition binding, mouse brain (cortex) membranes; conditions: ratio of Ki values
# T2 construct: membranes from the mouse brain and spleen were used, respectively; from tissue
# Method: To evaluate the affinity of JWH-175 for murine CB1 and CB2 receptors, membranes from the mouse brain and spleen were used, respectively. Following excision from mice, tissues were suspended in 50 mM Tris HCl, pH 7.4, at 4 °C. The mouse brain and spleen tissues were homogenized with a Polytron and subsequently centrifuged for 10 min at 2000× g. The resulting supernatants were filtered and centrifuged for 20 min at 40,000× g, and the pellets were used for competition binding experiments.
# Competition binding experiments were carried out by incubating 0.5 nM [3H]-CP-55,940 (Perkin Elmer Life and Analytical Sciences, Waltham, MA, USA) and different concentrations of the tested compounds for 90 or 60 min at 30 °C for CB1 or CB2 receptors, respectively. […] Non-specific binding was determined in the presence of 1 μM WIN 55,212-2 [92]. Bound and free radioactivity were separated by filtering the assay mixture through Whatman GF/C glass fiber filters using a Brandel cell harvester (Brandel Instruments, Unterföhring, Germany). The filter-bound radioactivity was counted using a Packard Tri Carb 2810 TR scintillation counter (Perkin Elmer Life and Analytical Sciences, Waltham, MA, USA).
# The protein concentration was determined according to a Bio-Rad method with bovine serum albumin as a reference standard. […] All the data are expressed as the mean ± SEM of three independent experiments.
compound,measurement,setting,value
"CCCCCn1cc(Cc2cccc3ccccc23)c2ccccc21 [JWH-175, 3-(1-naphthalenylmethyl)-1-pentyl-1H-indole]",selectivity index (ratio between the Ki value to human CB2 and the Ki value to human CB1),human CB1 receptors,14
same,fold lower affinity than JWH-018 at mouse CB1 receptors,mouse CB1 receptors,5.77 fold
